Legend:
[1] = target: recombinant COP9 signalosome complex (CSN), Q13098;Q9UNS2;Q92905;Q99627;Q8WXC6; assay: peptide array; conditions: mean of six arrays; read off a plot
[2] = target: recombinant CSN^ΔCSNAP complex, Q13098;Q9UNS2;Q92905;Q99627; assay: peptide array; conditions: mean of six arrays; read off a plot

| ratio to parent (fold of C-CSNAP) [1] | ratio to parent (fold of C-CSNAP) [2] | Substance |
| --- | --- | --- |
| 0.95 |  | 16AA C-CSNAP peptide on the peptide array (spot A1) D54A |
| 0.93 |  | 16AA C-CSNAP peptide on the peptide array (spot A1) D53E |
| 1 |  | 16AA C-CSNAP peptide on the peptide array (spot A1) D55E |
| 1 | 0.96 | 16AA C-CSNAP peptide on the peptide array (spot A1) D52A |
| 0.32 | 0.7 | 16AA C-CSNAP peptide on the peptide array (spot A1) Aib at positions 46,52,57 |
|  | 1.3 | 16AA C-CSNAP peptide on the peptide array (spot A1) D54(D-Asp) |
| 0.73 | 1.3 | 16AA C-CSNAP peptide on the peptide array (spot A1) F43W; F44W |
| 0.97 |  | 16AA C-CSNAP peptide on the peptide array (spot A1) D46(D-Asp) |
| 1 | 1.5 | 16AA C-CSNAP peptide on the peptide array (spot A1) Q57(D-Gln) |
| 0.24 |  | 16AA C-CSNAP peptide on the peptide array (spot A1) E48(D-Glu) |
| 0.84 |  | 16AA C-CSNAP peptide on the peptide array (spot A1) F43A |
|  | 0.84 | 16AA C-CSNAP peptide on the peptide array (spot A1) D49A |
| 1 |  | 16AA C-CSNAP peptide on the peptide array (spot A1) D55A |
| 0.97 |  | 16AA C-CSNAP peptide on the peptide array (spot A1) D52E |
| 0.97 |  | 16AA C-CSNAP peptide on the peptide array (spot A1) D54E |
| 0.94 |  | 16AA C-CSNAP peptide on the peptide array (spot A1) F47W |
| 0.81 | 1.3 | 16AA C-CSNAP peptide on the peptide array (spot A1) F44W |
| 1 | 1 | 16AA C-CSNAP peptide on the peptide array (spot A1) D46E |

| ratio to parent (fold of C-CSNAP) [1] | ratio to parent (fold of C-CSNAP) [2] | Substance |
| --- | --- | --- |
|  | 0.95 | 16AA C-CSNAP peptide on the peptide array (spot A1) F51(D-Phe) |
| 0.79 | 0.93 | 16AA C-CSNAP peptide on the peptide array (spot A1) D49E |
| 1.3 |  | 16AA C-CSNAP peptide on the peptide array (spot A1) N45A |
|  | 1 | 16AA C-CSNAP peptide on the peptide array (spot A1) E48A |
| 0.77 | 1.3 | 16AA C-CSNAP peptide on the peptide array (spot A1) F43W |
|  | 0.88 | 16AA C-CSNAP peptide on the peptide array (spot A1) F43(D-Phe) |
| 0.81 | 1 | 16AA C-CSNAP peptide on the peptide array (spot A1) F51W |
|  | 1 | 16AA C-CSNAP peptide on the peptide array (spot A1) D49(D-Asp) |
| 0.89 |  | 16AA C-CSNAP peptide on the peptide array (spot A1) D53A |
| 0.45 | 1 | 16AA C-CSNAP peptide on the peptide array (spot A1) F47(D-Phe) |
| 0.47 |  | 16AA C-CSNAP peptide on the peptide array (spot A1) Aib at positions 42,48,54 |
| 0.79 | 1.5 | 16AA C-CSNAP peptide on the peptide array (spot A1) F43W; F47W |
|  | 0.93 | 16AA C-CSNAP peptide on the peptide array (spot A1) D52(D-Asp) |
| 0.97 | 0.84 | 16AA C-CSNAP peptide on the peptide array (spot A1) N45(D-Asn) |
| 0.47 | 0.82 | 16AA C-CSNAP peptide on the peptide array (spot A1) Aib at positions 45,50,56 |
|  | 0.84 | 16AA C-CSNAP peptide on the peptide array (spot A1) F44(D-Phe) |
| 1 | 1.5 | 16AA C-CSNAP peptide on the peptide array (spot A1) I56(D-Ile) |

— PMC10355216, “The C-terminal tail of CSNAP attenuates the CSN complex” (Life Science Alliance, 2023)
